In patent US5962434A, “Compounds for stimulating nerve growth” (The Johns Hopkins University School of Medicine, priority 1996, dated 1999):

Target: T1, myelin-associated glycoprotein (MAG) (Rattus norvegicus, UniProt P07722)
T1 sequence (P07722 20-626): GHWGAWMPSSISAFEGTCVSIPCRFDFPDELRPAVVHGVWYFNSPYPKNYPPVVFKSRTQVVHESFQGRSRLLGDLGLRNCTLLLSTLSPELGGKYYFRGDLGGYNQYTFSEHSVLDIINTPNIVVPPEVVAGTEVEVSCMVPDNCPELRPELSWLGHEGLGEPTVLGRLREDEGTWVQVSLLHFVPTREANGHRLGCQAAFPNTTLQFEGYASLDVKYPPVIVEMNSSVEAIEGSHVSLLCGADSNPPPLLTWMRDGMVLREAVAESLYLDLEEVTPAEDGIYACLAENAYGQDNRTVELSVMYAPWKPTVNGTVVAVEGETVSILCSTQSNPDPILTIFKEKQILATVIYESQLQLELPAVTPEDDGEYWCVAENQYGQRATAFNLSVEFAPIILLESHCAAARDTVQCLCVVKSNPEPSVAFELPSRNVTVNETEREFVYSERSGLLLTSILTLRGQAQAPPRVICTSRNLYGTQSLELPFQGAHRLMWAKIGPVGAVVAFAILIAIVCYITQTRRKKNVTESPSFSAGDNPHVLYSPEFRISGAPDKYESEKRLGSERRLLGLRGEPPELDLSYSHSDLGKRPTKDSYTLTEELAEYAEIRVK
Experiment: Adherence of MAG-transfected COS cells to microwell surfaces on which gangliosides/glycolipids were adsorbed (LDH activity)
Conditions: structure-function comparison, FIGS. 1C and 2

NeuAc α2,3 Gal β1,3(NeuAc α2,6) GalNAc β1,4(NeuAc α2,8 NeuAc α2,3)Gal β1,4Glc β1,1'Ceramide [GQ1bα]
support of MAG-mediated cell adhesion: enhanced support of MAG-transfected COS cell adhesion
